Values of other authors in paper PMC2837949.

Amino acid sequences for entries named in this document (tags omitted). Residues count along the entry.
UniProt P16382, 26-233, chain 1 of 2: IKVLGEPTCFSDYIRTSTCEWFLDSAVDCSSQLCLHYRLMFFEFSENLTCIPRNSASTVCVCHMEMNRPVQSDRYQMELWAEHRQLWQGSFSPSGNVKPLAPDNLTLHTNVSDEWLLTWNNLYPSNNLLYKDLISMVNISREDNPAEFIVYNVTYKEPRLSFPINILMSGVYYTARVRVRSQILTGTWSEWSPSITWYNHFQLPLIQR
UniProt P07750, 21-140: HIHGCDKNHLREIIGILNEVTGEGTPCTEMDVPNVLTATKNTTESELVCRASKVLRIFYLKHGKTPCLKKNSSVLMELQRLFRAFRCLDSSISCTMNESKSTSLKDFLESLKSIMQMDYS

Molecular target: IL-4 receptor (IL-4 receptor alpha/common gamma chain) (Mus musculus) (UniProt P16382)

Substance: IL-4 (from UniProt P07750)
- Kd: 0.11 nM
